Laboratory results from US20160310613A1, “METHODS AND COMPOSITIONS FOR OVERCOMING DRUG-RESISTANCE IN CANCER BY TARGETED DELIVERY OF PRO-DRUG-NANO-POLYMERS” (priority 2015, published 2016).

Legend:
[1] = Zeta potential of agent-polymer conjugates; assay type: physicochemical; details: High Precision Mode
Experimental: Zeta potential of the agent-Polymer conjugates were taken using Zeta Plus (zeta potential analyzer) Brookhaven Instruments Corporation (Holtsville, N.Y.) equipped with a palladium electrode with acrylic support was used. BIC zetapw32 software was used and all the measurements were taken at 25° C. using High Precision Mode.

[2] = system: H9C2 rat cardiomyocytes; details: H9C2, 24 h, highest concentration (30 μg/ml), FIG. 9
[3] = system: SKOV-3 TR resistant Ovarian cancer cells; details: Paclitaxel resistant SKOV-3 TR cells
Experimental: Human ovarian cancer (SKOV-3 TR) resistant cells were cultured using the same protocol described for culturing SKOV-3 TR resistant cells in Example 8 above. Cultured cells (SKOV-3 TR) were incubated with bispecific anti-Her-2 Affibody-anti-DTPA antibody at a concentration of 20 μg/ml for 24 hours at 37° C. […] After 24-48 h incubation at 37° C., viability was assessed by Trypan Blue exclusion test using CellTiter Blue® (Promega, Madison, Wis.) following the manufacturer's protocol as described above in Example 8.
SKOV-3 sensitive and SKOV-3 TR resistant Ovarian cancer cells were cultured using the same protocol described in Examples 8 and 9 above. Cultured cells were incubated with bispecific anti-Her-2 Affibody-anti-DTPA antibody.

[4] = neutral pH (0.1 M phosphate buffer pH 7.4), 37° C., dialysis, 20 minutes up to 24 hours

Substance	Zeta Potential at 25° C. [1] [mV]	Cardiocyte toxicity compared to cells incubated with free drug [2]	Cytotoxic effect relative to Paclitaxel delivered as free drug [3]	Paclitaxel associated with the polymers (stability) [4]
DTPA-Doxorubicin-Poly Glutamic acid [D-Dox-PGA]	−11.475	lower		
DTPA-Paclitaxel-Poly Glutamic acid [D-PTXL-PGA]	−15.754	lower	higher cytotoxic effect and enhanced cell killing	greater than 90%
